Results on 2 molecules are retold here after patent publication US12187727B2, “Methods for antagonizing a melanocortin 4 receptor” (Pfizer Inc., priority 2020, dated 2025).

Amino acid sequences for entries named in this document (tags omitted).
UniProt P32245, whole entry: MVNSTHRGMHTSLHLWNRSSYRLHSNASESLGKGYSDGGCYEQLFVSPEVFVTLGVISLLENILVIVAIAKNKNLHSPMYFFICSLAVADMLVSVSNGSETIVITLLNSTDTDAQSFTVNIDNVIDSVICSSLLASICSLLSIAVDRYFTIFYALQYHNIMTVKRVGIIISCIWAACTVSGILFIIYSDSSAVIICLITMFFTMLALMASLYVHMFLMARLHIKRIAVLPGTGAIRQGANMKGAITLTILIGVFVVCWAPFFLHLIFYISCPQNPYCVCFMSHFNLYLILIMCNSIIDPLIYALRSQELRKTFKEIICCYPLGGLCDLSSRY

The test has as its target human Melanocortin-4 receptor (MC4R) (Homo sapiens (Human), UniProt P32245). The test can be described thus: Functional in vitro MC4R antagonist potency assay (cAMP HTRF in CHO cells). Format: cell-based. The method, then: Example BB. Functional In Vitro MC4R Antagonist Potency Assay
The functional in vitro antagonist potency for test compounds was determined by monitoring intracellular cyclic adenosine monophosphate (cAMP) levels in Chinese hamster ovary (CHO—) cells stably expressing the human Melanocortin-4 receptor (MC4R). Following agonist activation, human MC4R associates with the G-protein complex causing the Gα subunit to exchange bound GDP for GTP, followed by dissociation of the Ga-GTP complex. The activated Gα subunit can couple to downstream effectors to regulate the levels of second messengers or cAMP within the cell. Thereby, determination of intracellular cAMP levels allows for pharmacological characterization. Intracellular cAMP levels are quantitated using a homogenous assay utilizing the Homogeneous Time-Resolved Fluorescence (HTRF) technology from CisBio. The method is a competitive immunoassay between native cAMP produced by cells and the cAMP labelled with the acceptor dye, d2. […]
(95% O2: 5% CO2) overnight, with micro-clime lids (Labcyte, Cat No. LLS-0310). […] Intracellular cAMP levels were quantified as per Cisbio's protocol (5 uL of D2 and then 5 uL Cryptate, incubated for 1-2 hours at room temperature).
Data expressed as nM cAMP were then normalized to control wells using Activity Base (IDBS). […]

In turn, `COc1cc([C@@H](C)C(=O)N2CC[C@@]3(CCc4cc(-c5ncccn5)c(C)nc4N3)C2)c(F)cn1` [Example 14, (2R)-2-(5-Fluoro-2-methoxypyridin-4-yl)-1-[(2S)-7-methyl-6-(pyrimidin-2-yl)-3,4-dihydro-1H-spiro[1,8-naphthyridine-2,3′-pyrrolidin]-1′-yl]propan-1-one] returned a Kb of 0.72 nM.
As for `COc1cc([C@@H](C)C(=O)N2CC[C@@]3(CCc4cc(-c5ncccn5)c(C)nc4N3)C2)c(Cl)cn1` [Example 15, (2R)-2-(5-Chloro-2-methoxypyridin-4-yl)-1-[(2S)-7-methyl-6-(pyrimidin-2-yl)-3,4-dihydro-1H-spiro[1,8-naphthyridine-2,3′-pyrrolidin]-1′-yl]propan-1-one], the figure is 0.051 nM.
